The record followed here is PubChem BioAssay AID1832 (Broad Institute, 2009).

Sequences of proteins named here, by UniProt entry; tags and fusion partners are left off.
UniProt Q9XUB2, whole entry: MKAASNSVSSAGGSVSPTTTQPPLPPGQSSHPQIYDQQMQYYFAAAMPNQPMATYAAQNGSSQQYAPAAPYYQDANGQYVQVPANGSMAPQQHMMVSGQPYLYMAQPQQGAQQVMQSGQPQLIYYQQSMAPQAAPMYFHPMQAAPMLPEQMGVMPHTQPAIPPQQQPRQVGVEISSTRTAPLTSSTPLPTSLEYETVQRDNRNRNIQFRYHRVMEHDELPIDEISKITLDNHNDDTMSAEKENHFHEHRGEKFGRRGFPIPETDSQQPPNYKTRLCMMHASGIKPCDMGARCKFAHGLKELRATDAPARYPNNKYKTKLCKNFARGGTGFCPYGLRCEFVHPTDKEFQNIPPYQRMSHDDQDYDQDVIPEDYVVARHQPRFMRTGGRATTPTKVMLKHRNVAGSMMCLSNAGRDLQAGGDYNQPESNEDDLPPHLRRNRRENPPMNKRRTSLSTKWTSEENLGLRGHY

This is a selection; strong and weak results do not stand in their true shares. Some salts or complexes appear as unconnected parts, following the source record. The source made the active and inactive calls.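 The calls were made as follows: active = inhibition past about -25% in most replicates, and total fluorescence under double the plate's negative control median (limit read from the data); inconclusive = replicates evenly split on the limit, or fluorescence at least double controls; inactive = too little inhibition in most replicates.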

This assay has as its target Zinc finger protein mex-5 (Caenorhabditis elegans) (UniProt Q9XUB2). In words: MEX-5 zinc finger RNA-binding disruptors – biochemical, C. elegans, fluorescence polarization, MLPCN library, primary screen (AID 1832).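 Also: 0% = DMSO and -100% = 5 µM competing unlabeled TCR2 RNA.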 Conditions: MEX-5/FITC-TCR2 RNA binding, at 10 µM, active compounds read low.
For the molecule `Cc1cc(C)cc(OP(C)(N)=O)c1` (stereo unspecified), the activity score (negative = inhibition of binding) was inactive: 2.52%.

Take `COc1ccccc1OP(C)(=O)Nc1cc(Cl)ccc1C` (stereo unspecified): the activity score (negative = inhibition of binding) is inactive: 2.85%.

Take `COc1ccc(OP(C)(=O)Nc2cccc(F)c2)cc1` (stereo unspecified): the activity score (negative = inhibition of binding) was inactive: -0.11%.

For the molecule `COc1ccccc1OP(C)(=O)Nc1ccc(C)cc1` (stereo unspecified), the activity score (negative = inhibition of binding) was inactive: 0.536%.

As to `Cc1ccc(NP(C)(=O)Oc2ccccc2)c(C)c1` (stereo unspecified), the activity score (negative = inhibition of binding) is inactive: -1.7%.

Take `CCOC(=O)c1ccc(NP(C)(=O)Oc2ccccc2)cc1` (stereo unspecified): the activity score (negative = inhibition of binding) was inactive: 0.833%.

`O=[N+]([O-])c1ccc2c(c1)C=Nc1ccccc1O2`: the activity score (negative = inhibition of binding) is inactive: -0.0142%.

`CC(C)(C)c1ccc(OP(C)(=O)Nc2ccc(SC(F)(F)F)cc2)cc1` (stereo unspecified): the activity score (negative = inhibition of binding) is inactive: -2.15%.

For the molecule `Cc1cccc(C)c1OP(C)(N)=O` (stereo unspecified), the activity score (negative = inhibition of binding) is inactive: -0.171%.

In the case of `O=[N+]([O-])c1cc([N+](=O)[O-])c(Nc2cccnc2)c([N+](=O)[O-])c1`, the activity score (negative = inhibition of binding) was inactive: -0.783%.

Turning to `CCN(CC)CCCOC(=O)C(O)(c1ccccc1)c1ccccc1`, the activity score (negative = inhibition of binding) is inactive: 0.552%.

With `CP(=O)(Nc1ccccn1)Oc1ccc(Cl)cc1` (stereo unspecified), the activity score (negative = inhibition of binding) is inactive: -1.09%.

For the molecule `O=[N+]([O-])c1cc([N+](=O)[O-])c(O)c([N+](=O)[O-])c1.c1ccc(Oc2ccncc2)cc1`, the activity score (negative = inhibition of binding) is inactive: -0.168%.

For `CCOC(=O)c1ccc(NP(C)(=O)Oc2ccc(OC)cc2)cc1` (stereo unspecified), the activity score (negative = inhibition of binding) was inactive: 1.37%.

As for `CCOP(C)(=S)SCC(=O)NC(C)C(=O)O` (stereo unspecified), the activity score (negative = inhibition of binding) is inactive: -2.8%.

On to `CP(=O)(NC(=O)Nc1ccccc1)Oc1ccccc1` (stereo unspecified), for which the activity score (negative = inhibition of binding) was inactive: 1.92%.

As to `Cc1cc(C)cc(OP(C)(=O)Nc2ccc(SC(F)(F)F)cc2)c1` (stereo unspecified), the activity score (negative = inhibition of binding) was inactive: -3.79%.

Take `CP(=O)(Nc1ccc(SC(F)(F)F)cc1)Oc1ccc(Cl)cc1` (stereo unspecified): the activity score (negative = inhibition of binding) was inactive: -1.63%.

Regarding `Cc1cccc(C)c1OP(C)(=O)Nc1ccc(SC(F)(F)F)cc1` (stereo unspecified), the activity score (negative = inhibition of binding) was inactive: 0.835%.

`CP(=O)(Oc1ccccc1)OC(c1ccccc1)C(F)(F)F` (stereo unspecified): the activity score (negative = inhibition of binding) was inactive: 0.9%.

Consider `CP(=O)(Nc1ccccc1Br)Oc1ccccc1` (stereo unspecified), for which the activity score (negative = inhibition of binding) was inactive: 1.33%.

As to `COc1ccccc1OP(C)(=O)Nc1ccccc1` (stereo unspecified), the activity score (negative = inhibition of binding) was inactive: -2.2%.

On to `CP(=S)(Nn1cnnc1)Oc1ccccc1` (stereo unspecified), for which the activity score (negative = inhibition of binding) was inactive: -3.19%.

On to `CP(=O)(Nc1ccc(SC(F)(F)F)cc1)Oc1ccccc1` (stereo unspecified), for which the activity score (negative = inhibition of binding) is inactive: 2.77%.

With `CCCOc1ccc(NP(C)(=O)Oc2ccc(Cl)cc2)cc1` (stereo unspecified), the activity score (negative = inhibition of binding) is inactive: 1.84%.

As for `CN1CCCCC1COC(=O)C1(O)c2ccccc2CCc2ccccc21` (stereo unspecified), the activity score (negative = inhibition of binding) is inactive: 5.18%.

On to `COc1ccccc1OP(C)(=O)Nc1c(C)cccc1C` (stereo unspecified), for which the activity score (negative = inhibition of binding) was inactive: -1.39%.

For the molecule `O=[N+]([O-])c1cc([N+](=O)[O-])c(Nc2nnnn2CCO)c([N+](=O)[O-])c1`, the activity score (negative = inhibition of binding) was inactive: 0.552%.

Turning to `CCOC(=O)C(CC)C1=NC(C)(C)Cc2ccccc21.O=[N+]([O-])c1cc([N+](=O)[O-])c(O)c([N+](=O)[O-])c1` (stereo unspecified), the activity score (negative = inhibition of binding) was inactive: -1.1%.

For `O=[N+]([O-])c1cc([N+](=O)[O-])c(-c2cnn(-c3ccccc3)c2)c([N+](=O)[O-])c1`, the activity score (negative = inhibition of binding) is inactive: 3.94%.

Take `O=[N+]([O-])c1cc([N+](=O)[O-])c(-n2nnc3ccccc32)c([N+](=O)[O-])c1`: the activity score (negative = inhibition of binding) is inactive: -0.907%.

Turning to `Cc1ccc(C)c(NP(C)(=O)Oc2ccccc2)c1` (stereo unspecified), the activity score (negative = inhibition of binding) was inactive: -1.22%.

As for `CP(=O)(Nc1cccc(Br)c1)Oc1ccccc1` (stereo unspecified), the activity score (negative = inhibition of binding) is inactive: 2.49%.

Regarding `Cc1cc(C)cc(OP(C)(=O)Nc2ccccn2)c1` (stereo unspecified), the activity score (negative = inhibition of binding) is inactive: -3.03%.

Consider `CCOC(=O)c1ccc(NP(C)(=O)Oc2cc(C)cc(C)c2)cc1` (stereo unspecified), for which the activity score (negative = inhibition of binding) is inactive: 3.75%.

Consider `Cc1cc(C)cc(OP(C)(=O)Nc2ccc(C)cc2C)c1` (stereo unspecified), for which the activity score (negative = inhibition of binding) is inactive: -1.8%.

`COc1ccccc1OP(C)(=O)Nc1cccc(Br)c1` (stereo unspecified): the activity score (negative = inhibition of binding) was inactive: 2.28%.

Regarding `CC1=NCCc2c1[nH]c1ccccc21.O=[N+]([O-])c1cc([N+](=O)[O-])c(O)c([N+](=O)[O-])c1`, the activity score (negative = inhibition of binding) is inactive: -0.235%.

With `O=C(O)c1cccc(Nc2c([N+](=O)[O-])cc([N+](=O)[O-])cc2[N+](=O)[O-])c1`, the activity score (negative = inhibition of binding) was inactive: 1.66%.

As for `CP(=O)(Nc1ccccc1)Oc1ccc(F)cc1` (stereo unspecified), the activity score (negative = inhibition of binding) is inactive: -3.47%.

For `CCCCCOc1ccc(NP(C)(=O)Oc2ccc(Cl)cc2Cl)cc1` (stereo unspecified), the activity score (negative = inhibition of binding) is inactive: 1.15%.

Turning to `O=[N+]([O-])c1cc([N+](=O)[O-])c(OC2CCCCC2O)c([N+](=O)[O-])c1` (stereo unspecified), the activity score (negative = inhibition of binding) is inactive: -1.61%.

On to `CCOC(=O)c1ccc(NP(C)(=O)Oc2ccc(F)cc2)cc1` (stereo unspecified), for which the activity score (negative = inhibition of binding) is inactive: 0.198%.

As to `COc1ccc(OP(C)(=O)Nc2ccc(SC(F)(F)F)cc2)cc1` (stereo unspecified), the activity score (negative = inhibition of binding) was inactive: -3.62%.

In the case of `COc1ccc2c(c1O)-c1c(O)c(OC)cc3c1[C@H](C2)[N+](C)(C)CC3.O=[N+]([O-])c1cc([N+](=O)[O-])c([O-])c([N+](=O)[O-])c1[O-]`, the activity score (negative = inhibition of binding) was inactive: -4.27%.

Consider `O=C(OC1CN2CCC1CC2)c1ccc([N+](=O)[O-])cc1` (stereo unspecified), for which the activity score (negative = inhibition of binding) was inactive: 0.832%.

As for `O=C(OCCN1CCN(CCOCc2ccccc2)CC1)C(O)(c1ccccc1)c1ccccc1`, the activity score (negative = inhibition of binding) was inactive: 0.822%.

On to `CP(=O)(Nc1ccccc1F)Oc1ccccc1` (stereo unspecified), for which the activity score (negative = inhibition of binding) is inactive: 1.33%.

As to `CC(C)c1ccc(OP(C)(=O)Nc2ccc(SC(F)(F)F)cc2)cc1` (stereo unspecified), the activity score (negative = inhibition of binding) is inactive: -2.14%.

As for `Cc1ccccc1NP(C)(=O)Nc1ccccc1C`, the activity score (negative = inhibition of binding) is inactive: 1.41%.

Turning to `CP(=O)(Nc1ccc2c(c1)OCCO2)Oc1ccccc1` (stereo unspecified), the activity score (negative = inhibition of binding) is inactive: 3.41%.

Turning to `CCOP(C)(=S)SCC(=O)NC(C)(CC)C(=O)O` (stereo unspecified), the activity score (negative = inhibition of binding) is inactive: -0.0518%.

Regarding `CP(=O)(Nc1ccc(SC(F)(F)F)cc1)Oc1ccc(F)cc1` (stereo unspecified), the activity score (negative = inhibition of binding) is inactive: 0.591%.

On to `O=[N+]([O-])c1ccc(OP2(=O)COCCO2)cc1` (stereo unspecified), for which the activity score (negative = inhibition of binding) is inactive: -0.741%.

Take `Cc1cc(-c2cccc3ccccc23)c(C)cn1.O=[N+]([O-])c1cc([N+](=O)[O-])c(O)c([N+](=O)[O-])c1`: the activity score (negative = inhibition of binding) was inactive: 1.16%.

Take `O=[N+]([O-])c1cc([N+](=O)[O-])c(NCC2CCS(=O)(=O)C2)c([N+](=O)[O-])c1` (stereo unspecified): the activity score (negative = inhibition of binding) is inactive: -0.273%.

As for `CN(C)CCOC(=O)C(O)(c1ccccc1)C1CCCCC1` (stereo unspecified), the activity score (negative = inhibition of binding) is inactive: 0.377%.

Consider `COc1ccc(NP(C)(=O)Oc2ccccc2OC)cc1` (stereo unspecified), for which the activity score (negative = inhibition of binding) was inactive: -1.12%.

For `COc1ccc(OP(C)(=O)Nc2cccc(Br)c2)cc1` (stereo unspecified), the activity score (negative = inhibition of binding) is inactive: 0.301%.

Regarding `CCOC(=O)c1ccc(NP(C)(=O)Oc2ccc(Cl)cc2)cc1` (stereo unspecified), the activity score (negative = inhibition of binding) was inactive: -3.39%.

`CP(=O)(OC12CC3CC(CC(C3)C1)C2)OC12CC3CC(CC(C3)C1)C2`: the activity score (negative = inhibition of binding) was inactive: 2.18%.

With `Nc1ccc2c(ccc3cccnc32)n1.O=[N+]([O-])c1cc([N+](=O)[O-])c(O)c([N+](=O)[O-])c1`, the activity score (negative = inhibition of binding) is inactive: -1.01%.

With `CN(C)C(=O)c1c([N+](=O)[O-])cc([N+](=O)[O-])cc1[N+](=O)[O-]`, the activity score (negative = inhibition of binding) was inactive: 1.94%.

As to `CC(C)(C)c1ccc(OP(C)(=O)O)cc1`, the activity score (negative = inhibition of binding) is inactive: -1.84%.

As to `COc1ccccc1OP(C)(=O)Nc1ccccc1Br` (stereo unspecified), the activity score (negative = inhibition of binding) was inactive: -0.367%.

As for `CP(=O)(Nc1ccc(Cl)cc1)Oc1ccc(F)cc1` (stereo unspecified), the activity score (negative = inhibition of binding) was inactive: 1.4%.

With `COc1ccccc1OP(C)(=O)Nc1c(C)n(C)n(-c2ccccc2)c1=O` (stereo unspecified), the activity score (negative = inhibition of binding) was inactive: -1.45%.

As for `O=C(OCCCN1CCCC1)C(O)(c1ccccc1)C1CCCCC1` (stereo unspecified), the activity score (negative = inhibition of binding) is inactive: -2.01%.

In the case of `CP(=O)(Oc1ccccc1)N1CCOC1=O` (stereo unspecified), the activity score (negative = inhibition of binding) is inactive: -2.26%.

For the molecule `CCc1ccc(OP(C)(=O)Nc2cccnc2)cc1` (stereo unspecified), the activity score (negative = inhibition of binding) is inactive: 0.17%.

For the molecule `CCN(CC)CC(O)COC(=O)C(O)(c1ccccc1)C1CCCCC1` (stereo unspecified), the activity score (negative = inhibition of binding) was inactive: 1.45%.

With `COc1ccc(OP(C)(=O)Nc2ccc(Br)cc2)cc1` (stereo unspecified), the activity score (negative = inhibition of binding) was inactive: 1.7%.

As to `CP(=O)(Nc1ccccn1)Oc1ccccc1` (stereo unspecified), the activity score (negative = inhibition of binding) was inactive: -0.518%.

Take `COc1ccccc1OP(C)(=O)Nc1ccc(C)cc1C` (stereo unspecified): the activity score (negative = inhibition of binding) is inactive: 0.518%.

As for `CCc1ccc(OP(C)(=O)O)cc1`, the activity score (negative = inhibition of binding) is inactive: 1.74%.

For `O=[N+]([O-])c1cc([N+](=O)[O-])c(Nc2ccccn2)c([N+](=O)[O-])c1`, the activity score (negative = inhibition of binding) is inactive: 2.19%.

In the case of `Cc1c(NP(C)(=O)Oc2ccc(C(C)C)cc2)c(=O)n(-c2ccccc2)n1C` (stereo unspecified), the activity score (negative = inhibition of binding) was inactive: 1.73%.

For `COc1ccc(OP(C)(=O)Nc2ccccn2)cc1` (stereo unspecified), the activity score (negative = inhibition of binding) is inactive: -1.98%.

In the case of `CN(C)CCOC(=O)C(O)(c1ccccc1)C1CCCC1` (stereo unspecified), the activity score (negative = inhibition of binding) was inactive: 1.32%.

Turning to `COc1ccccc1OP(C)(=O)Nc1ccc(Br)cc1` (stereo unspecified), the activity score (negative = inhibition of binding) is inactive: 0.485%.

Take `CP(=O)(OCCOc1ccccc1)OCCOc1ccccc1`: the activity score (negative = inhibition of binding) was inactive: 0.697%.

`CP(=O)(Nc1ccc(Cl)cc1Cl)Oc1ccccc1` (stereo unspecified): the activity score (negative = inhibition of binding) is inactive: -1.26%.

As for `Cc1nc2ccc3ccccc3c2o1.O=[N+]([O-])c1cc([N+](=O)[O-])c(O)c([N+](=O)[O-])c1`, the activity score (negative = inhibition of binding) was inactive: -1.69%.

Take `COc1ccccc1OP(C)(=O)Nc1ccc(C)c(C)c1` (stereo unspecified): the activity score (negative = inhibition of binding) was inactive: 0.174%.

Consider `COc1ccc(OP(C)(=O)Nc2ccccc2Br)cc1` (stereo unspecified), for which the activity score (negative = inhibition of binding) is inactive: 1.32%.

As to `Cc1cc(C)cc(OP(C)(=O)Nc2cccc(C(F)(F)F)c2)c1` (stereo unspecified), the activity score (negative = inhibition of binding) was inactive: 1.1%.
